Target: PDE4B1 (Homo sapiens, UniProt Q07343)
Assay: PDE4 activity determination, hydrolysis of [3H]-cAMP (PDE-SPA kit), PDE4B1
Assay type: biochemical
Details: human recombinant PDE4B1; mean ± SD of three to four experiments in duplicate; read-out: Potency (IC50 nM) PDE4B1

The chains behind the UniProt entries cited, without tags or fusion partners. Where a name states a change or a piece, a line headed by the entry shows the natural chain unless it says otherwise.
UniProt Q07343: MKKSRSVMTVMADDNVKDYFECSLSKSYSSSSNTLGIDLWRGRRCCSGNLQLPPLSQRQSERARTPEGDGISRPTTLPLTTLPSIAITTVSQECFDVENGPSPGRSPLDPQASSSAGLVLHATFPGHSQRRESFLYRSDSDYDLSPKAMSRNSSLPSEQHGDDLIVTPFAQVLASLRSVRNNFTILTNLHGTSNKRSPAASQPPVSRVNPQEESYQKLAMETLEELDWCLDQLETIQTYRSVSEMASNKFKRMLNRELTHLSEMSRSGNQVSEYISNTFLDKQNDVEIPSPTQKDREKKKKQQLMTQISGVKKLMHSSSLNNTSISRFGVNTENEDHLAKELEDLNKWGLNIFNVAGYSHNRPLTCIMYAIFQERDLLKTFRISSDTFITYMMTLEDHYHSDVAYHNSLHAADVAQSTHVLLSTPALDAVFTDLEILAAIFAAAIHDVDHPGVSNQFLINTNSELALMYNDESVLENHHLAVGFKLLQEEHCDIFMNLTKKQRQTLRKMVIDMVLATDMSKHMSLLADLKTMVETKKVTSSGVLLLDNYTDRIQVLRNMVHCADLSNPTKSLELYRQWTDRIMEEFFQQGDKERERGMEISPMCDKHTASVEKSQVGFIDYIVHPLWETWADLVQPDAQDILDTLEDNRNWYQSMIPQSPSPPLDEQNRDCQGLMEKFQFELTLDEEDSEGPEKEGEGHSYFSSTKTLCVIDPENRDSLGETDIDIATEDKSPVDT

IC50: 9.24 ± 0.65 nM
Compound: CCn1nc(-c2ccccc2)c(C(C)=O)c(Nc2ccc(C(=O)O)cc2)c1=O [2n, 4-(5-Acetyl-2-ethyl-3-oxo-6-phenyl-2,3-dihydropyridazin-4-ylamino)benzoic Acid]

From PMC12943719 (Molecules, 2026)
